From US20220273768A1 (The George Washington University, priority 2019, published 2022)

System: DIO C57BL/6J mice
Details: mouse, in vivo

leptin
minute ventilation during wakefulness: 1.8 ± 0.6 mL/min/g
